Values of other authors in patent US20170007620A1, “Method of replenishing steroid hormones in neutered mammals comprising administration of dehydroepiandrosterone (DHEA) and specific metabolites in order to increase steroid hormone levels from those of neutered mammals associated with high cancer risk, to steroid hormone levels of gonadally-intact …” (priority 2015, published 2017).

System: NK cells
Details: cited from earlier work

C[C@]12CC[C@H](O)CC1=CC[C@@H]1[C@@H]2CC[C@]2(C)C(=O)CC[C@@H]12 [DHEA, Dehydroepiandrosterone]
NK cell number and cytotoxicity: increase
